Test results taken from BindingDB's records for patent US10112937 (Janssen Pharmaceutica, 2018).
pIC50: −log10 of the molar value.

The chains behind the UniProt entries cited, without tags or fusion partners. Where a name states a change or a piece, a line headed by the entry shows the natural chain unless it says otherwise.
UniProt Q99572: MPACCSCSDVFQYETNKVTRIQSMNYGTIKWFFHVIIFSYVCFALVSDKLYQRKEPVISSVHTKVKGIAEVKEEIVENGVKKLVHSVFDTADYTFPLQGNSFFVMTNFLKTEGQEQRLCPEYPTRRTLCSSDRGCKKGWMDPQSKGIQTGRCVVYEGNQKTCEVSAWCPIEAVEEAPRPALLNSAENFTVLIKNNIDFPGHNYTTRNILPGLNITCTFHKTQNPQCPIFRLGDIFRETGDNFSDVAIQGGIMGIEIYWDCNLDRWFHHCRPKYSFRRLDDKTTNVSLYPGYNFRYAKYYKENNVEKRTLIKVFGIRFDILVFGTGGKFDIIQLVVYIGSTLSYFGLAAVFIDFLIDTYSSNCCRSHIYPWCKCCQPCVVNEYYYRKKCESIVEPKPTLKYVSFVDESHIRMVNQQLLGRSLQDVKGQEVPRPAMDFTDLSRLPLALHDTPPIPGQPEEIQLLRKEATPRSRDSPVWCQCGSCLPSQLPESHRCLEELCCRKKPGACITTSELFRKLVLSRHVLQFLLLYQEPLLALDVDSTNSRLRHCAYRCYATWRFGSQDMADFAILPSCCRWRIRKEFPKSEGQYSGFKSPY

Biological target: P2X purinoceptor 7 (Homo sapiens, UniProt Q99572)
Assay: Cells were seeded at a density of 25000 cells/well (96-well clear bottom black walled plates) in 100 μl volume/well. On the day of the experiment, cell plates were washed with assay buffer, containing (in mM): 130 NaCl, 2 KCl, 1 CaCl2, 1 MgCl2, 10 HEPES, 5 glucose; pH 7.40 and 300 mOs. After the wash, cells were loaded with the Calcium-4 dye (Molecular Device) and incubated in the dark for 60 minutes. Test compounds were prepared at 250× the test concentration in neat DMSO. Intermediate 96-well compound plates were prepared by transferring 1.2 μL of the compound into 300 μL of assay buffer. A further 3× dilution occurred when transferring 50 μL/well of the compound plate to 100 μL/well in the cell plate. Cells were incubated with test compounds and dye for 30 minutes. Calcium dye fluorescence was monitored in FLIPR as the cells were challenged by adding 50 μL/well of BzATP (final concentration is 250 μM BzATP (human and rat)). The fluorescence change was measured 180 seconds after adding the agonist. Peak fluorescence was plotted as a function of BzATP concentration using Origin 7 software.
Details: pH 7.4

Question: With `Cc1cc(C)nc(-n2nnc3c2C=CN(C(=O)c2cccc(Cl)c2Cl)C3C)n1` (stereo unspecified) [US10112937, Example 179] as the molecule, how does the pIC50 read?
Answer: 5.98
